The values below come from paper PMC3412545.

This experiment concerns the target Myc-tagged Coro1B-S2D (human) (UniProt Q9BR76). The experiment in a line: co-IP.

For “actin-related protein 2/3 complex subunit 2 (from UniProt P85970 1-300) (natural protein)”, the percent less co-immunoprecipitation than with S2A turned out to be 48%.
